Earlier results in patent US8574837B2, “System for screening agonists/antagonists of cellular signaling pathways” (President and Fellows of Harvard College, priority 2008, dated 2013).

Experiments:
[1] = test system: mouse medulloblastoma cells; settings: mouse allograft models; cited from earlier work
[2] = test system: mouse medulloblastoma cells; settings: in culture; cited from earlier work
SmoA1 = settings: cited from earlier work

## CC1=C2C[C@H]3[C@@H](CC=C4C[C@@H](O)CC[C@@]43C)[C@@H]2CC[C@]12O[C@@H]1C[C@H](C)CN[C@H]1[C@H]2C [cyclopamine]
[1]
  Rate of growth of mouse medulloblastoma cells: decrease the rate of growth
[2]
  Rate of growth of mouse medulloblastoma cells: decrease the rate of growth
SmoA1
  Inhibition of SmoA1 activity, dose relative to wild-type Smo: has to be applied at a much higher dose to block SmoA1 activity

Where two headings read alike, the source gives them in different places.
